Values of other authors in patent US20150133460A1 (Millennium Phamaceuticals, Inc., priority 2013, published 2015).

Tested on: human Flt-3/ITD-positive AML cancer cells
Details: preclinical studies; cited from earlier work

COc1cc2c(N3CCN(C(=O)Nc4ccc(OC(C)C)cc4)CC3)ncnc2cc1OCCCN1CCCCC1 [4-[6-methoxy-7-(3-piperidin-1-yl-propoxy)quinazolin-4-yl]piperazine-1-carboxylic acid(4-isopropoxyphenyl)-amide]
killing of human Flt-3/ITD-positive AML cancer cells: selectively killed
